For one assay, the target named is JAK2 (Homo sapiens (Human), UniProt O60674). Briefly: Jak Biochemical HTRF Assay (JAK2). As for the experimental part:
(§1) Jak Biochemical HTRF Assay Protocol
(§2) The ability of compounds to inhibit the activity of JAK1, JAK2, JAK3, and Tyk2 was measured using a recombinant purified GST-tagged catalytic domain for each enzyme (Invitrogen JAK1 #M4290, JAK2 #M4290, JAK3 #M4290, Tyk2 #M4290) in an HTRF format biochemical assay. […] The basic assay protocol is as follows: First, 250 nL of diluted compounds in DMSO were dispensed into the wells of a dry 384-well Black plate (Greiner #781076) using a Labcyte Echo 555 acoustic dispenser. Subsequent reagent additions employed an Agilent Bravo. Next, 18 μL of 1.11× enzyme and 1.11× substrate in 1× assay buffer (Invitrogen kinase buffer # PV3189, 2 mM DTT, 0.05% BSA) were added to the wells and shaken and then preincubated for 30 minutes at room temperature to allow compound binding to equilibrate. After equilibration, 2 μL of 10×ATP in 1× assay buffer was added to initiate the kinase reaction and the plates were shaken and then incubated at room temperature for 120 minutes. At the end of the incubation, 20 μL of 2× stop buffer (streptavidin-Dylight 650 (Thermo #84547B/100 mL), Eu-tagged pY20 antibody (Perkin Elmer #AD0067), EDTA, HEPES, and Triton) was added to quench the reaction. Plates were shaken and centrifuged and then incubated 60 minutes at room temperature and then read on a Perkin Elmer Envision (Xex=337 nm, λem=665 and 615 nm, TRF delay time=20 μs). HTRF signal=10,000*665 nm reading/615 nm reading. After normalization to untreated controls, the percent inhibition of the HTRF signal at each compound concentration was calculated. The plot of percent inhibition versus the log of compound concentration was fit with a 4-parameter dose response equation to calculate IC50 values.
On the technique in general: TR-FRET usually uses a lanthanide donor and a delayed reading to cut background.

Chains of the proteins cited; added tags and fusions are not shown. Residues count along the entry.
UniProt O60674, 849-1124: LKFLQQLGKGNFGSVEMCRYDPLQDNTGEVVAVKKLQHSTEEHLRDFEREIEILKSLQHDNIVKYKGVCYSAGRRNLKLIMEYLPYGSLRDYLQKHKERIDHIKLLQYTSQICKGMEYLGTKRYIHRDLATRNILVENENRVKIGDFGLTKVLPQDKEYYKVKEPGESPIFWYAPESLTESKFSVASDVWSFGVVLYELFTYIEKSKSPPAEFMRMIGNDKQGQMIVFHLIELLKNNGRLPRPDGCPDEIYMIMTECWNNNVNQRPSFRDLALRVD
UniProt P23458, 875-1153: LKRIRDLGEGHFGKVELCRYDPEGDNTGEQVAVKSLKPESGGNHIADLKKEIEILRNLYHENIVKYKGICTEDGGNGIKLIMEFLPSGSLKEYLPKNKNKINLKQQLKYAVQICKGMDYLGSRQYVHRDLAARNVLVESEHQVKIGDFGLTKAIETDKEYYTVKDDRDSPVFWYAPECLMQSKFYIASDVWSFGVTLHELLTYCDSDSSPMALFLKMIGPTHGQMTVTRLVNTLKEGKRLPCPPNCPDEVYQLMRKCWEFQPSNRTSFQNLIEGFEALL

In the next assay the target is JAK1 (Homo sapiens (Human), UniProt P23458). Briefly: Jak Biochemical HTRF Assay (JAK1). As to conditions: recombinant purified GST-tagged catalytic domain, [ATP] 31.8 μM, [E] 1.405 nM. As for the experimental part: as §1, §2
Setting [1] is: recombinant purified GST-tagged catalytic domain, HTRF, [ATP] 8.5 μM, [E] 0.052 nM.

Read-outs that look alike come from different tables or passages of the source.

The term IC50 denotes the concentration that inhibits the measured activity by half. Consider `CCC1(n2nc(Nc3ccc([C@]4(C(F)(F)F)CCCCCN4)cc3)c3c(=O)[nH]ccc32)CCN(C(=O)OC(C)(C)C)CC1` (single isomer, unassigned) [Example 2-16, (S or R)-tert-butyl-4-ethyl-4-(4-oxo-3-((4-(2-(trifluoromethyl)azepan-2-yl)phenyl)amino)-4,5-dihydro-1H-pyrazolo[4,3-c]pyridin-1-yl) piperidine-1-carboxylate], for which the IC50 at JAK2 (setting [1]) was 10.1 nM; at JAK1, 8.85 nM.

Turning to `CCC1(n2nc(Nc3ccc(S(=O)(=O)N4CCC[C@H]4C)cc3)c3c(=O)[nH]ccc32)CCN(C(=O)OC(C)(C)C)CC1` (single isomer, unassigned) [Example 2-39, (R or S)-tert-butyl 4-ethyl-4-(3-(4-(2-methylpyrrolidin-1-ylsulfonyl)phenylamino)-4-oxo-4,5-dihydropyrazolo[4,3-c]pyridin-1-yl) piperidine-1-carboxylate], the IC50 at JAK2 (setting [1]) stood at 2.79 nM.

Consider `CCC1(n2nc(Nc3ccc([C@@]4(C(F)(F)F)CCCCN4)cc3)c3c(=O)[nH]ccc32)CCN(C(=O)OC(C)(C)C)CC1` (single isomer, unassigned) [Example 2-31, (R or S)-tert-butyl 4-ethyl-4-(4-oxo-3-((4-(2-(trifluoromethyl)piperidin-2-yl)phenyl)amino)-4,5-dihydro-1H-pyrazolo[4,3-c]pyridin-1-yl) piperidine-1-carboxylate], for which the results for the IC50 on JAK2 (setting [1]) and on JAK1 were 2.7 nM and 2.74 nM, respectively.

Take `CCC1(n2nc(Nc3ccc([C@H](NC(C)(C)C)C(F)(F)F)cc3)c3c(=O)[nH]ccc32)CCN(C(=O)OC(C)(C)C)CC1` (single isomer, unassigned) [Example 2-37, (S or R)-tert-butyl 4-(3-(4-(1-(tert-butylamino)-2,2,2-trifluoroethyl)phenylamino)-4-oxo-4,5-dihydropyrazolo [4,3-c]pyridin-1-yl)-4-ethylpiperidine-1-carboxylate]: the values for the IC50 on JAK2 (setting [1]) and on JAK1 were 7.69 nM and 6.59 nM, respectively.

As to `CCC1(n2nc(Nc3ccc(C(=O)N4CCCOC(C)C4)c(C)c3)c3c(=O)[nH]ccc32)CCN(C(=O)OC(C)(C)C)CC1` (single isomer, unassigned) [Example 3-22, tert-butyl 4-ethyl-4-[3-({3R or 3S-methyl-4-[(2-methyl-1,4-oxazepan-4-yl)carbonyl]phenyl}amino)-4-oxo-4,5-dihydro-1H-pyrazolo [4,3-c]pyridin-1-yl] piperidine-1-carboxylate], the IC50 at JAK1 was 1.3 nM.

Turning to `CCC1(n2nc(Nc3ccc(C(=O)N4[C@@H](C)COC[C@@H]4C)c(C)c3)c3c(=O)[nH]ccc32)CCN(C(=O)OC(C)(C)C)CC1` (single isomer, unassigned) [Example 2-19, tert-butyl 4-(3-(4-((3S,5S or 3R,5R)-3,5-dimethylmorpholine-4-carbonyl)-3-methylphenylamino)-4-oxo-4,5-dihydropyrazolo[4,3-c]pyridin-1-yl)-4-ethylpiperidine-1-carboxylate], the IC50 on JAK2 (setting [1]) stood at 0.65 nM.

In the case of `CCC1(n2nc(Nc3ccc([C@]4(C(F)(F)F)CCCCN4)cc3)c3c(=O)[nH]ccc32)CCN(C(=O)OC(C)(C)C)CC1` (single isomer, unassigned) [Example 2-32, (S or R)-tert-butyl 4-ethyl-4-(4-oxo-3-((4-(2-(trifluoromethyl)piperidin-2-yl)phenyl)amino)-4,5-dihydro-1H-pyrazolo[4,3-c]pyridin-1-yl) piperidine-1-carboxylate], the IC50 was determined as 2.21 nM on JAK2 (setting [1]) and 2.19 nM at JAK1.

For the compound `CCC1(n2nc(Nc3ccc(C(=O)N4CCOC(C)C4C)c(C)c3)c3c(=O)[nH]ccc32)CCN(C(=O)OC(C)(C)C)CC1` (single isomer, unassigned) [Example 3-15, tert-butyl 4-[3-({4-[(2,3-dimethylmorpholin-4-yl)carbonyl]-3-methylphenyl}amino)-4-oxo-4,5-dihydro-1H-pyrazolo[4,3-c]pyridin-1-yl]-4-ethylpiperidine-1-carboxylate], the IC50 amounted to 2.1 nM at JAK2 (setting [1]) and 3.53 nM on JAK1.

For `CCC1(n2nc(Nc3ccc(C(=O)N4CCOC(C)C4C)c(C)c3)c3c(=O)[nH]ccc32)CCN(C(=O)OC(C)(C)C)CC1` (single isomer, unassigned) [Example 3-13, tert-butyl 4-[3-({4-[(2,3-dimethylmorpholin-4-yl)carbonyl]-3-methylphenyl}amino)-4-oxo-4,5-dihydro-1H-pyrazolo[4,3-c]pyridin-1-yl]-4-ethylpiperidine-1-carboxylate], the IC50 at JAK2 (setting [1]) amounted to 1.04 nM; on JAK1 it was 1.8 nM.

`CCC1(n2nc(Nc3ccc(C(=O)N4[C@H](C)COC[C@H]4C)c(C)c3)c3c(=O)[nH]ccc32)CCN(C(=O)OC(C)(C)C)CC1` (single isomer, unassigned) [Example 2-20, tert-butyl 4-(3-(4-((3R,5R or 3S,5S)-3,5-dimethylmorpholine-4-carbonyl)-3-methylphenylamino)-4-oxo-4,5-dihydropyrazolo[4,3-c]pyridin-1-yl)-4-ethylpiperidine-1-carboxylate]: the IC50 at JAK2 (setting [1]) was found to be 0.84 nM.

At JAK2, `CCC1(n2nc(Nc3ccc(C(=O)N4[C@H](C)COC[C@@H]4C)c(C)c3)c3c(=O)[nH]ccc32)CCN(C(=O)OC(C)(C)C)CC1` [Example 2-18, tert-butyl 4-(3-(4-((3S,5R)-3,5-dimethylmorpholine-4-carbonyl)-3-methylphenylamino)-4-oxo-2,3,4,5-tetrahydropyrazolo[4,3-c]pyridin-1-yl)-4-ethylpiperidine-1-carboxylate] showed an IC50 of 0.57 nM.

As for `CCC1(n2nc(Nc3ccc(S(=O)(=O)N4CCC[C@@H]4C)cc3)c3c(=O)[nH]ccc32)CCN(C(=O)OC(C)(C)C)CC1` (single isomer, unassigned) [Example 2-38, (S or R)-tert-butyl 4-ethyl-4-(3-(4-(2-methylpyrrolidin-1-ylsulfonyl)phenylamino)-4-oxo-4,5-dihydropyrazolo[4,3-c]pyridin-1-yl) piperidine-1-carboxylate], the IC50 at JAK2 (setting [1]) came to 2.78 nM.

As for `CCC1(n2nc(Nc3ccc([C@@H](NC(C)(C)C)C(F)(F)F)cc3)c3c(=O)[nH]ccc32)CCN(C(=O)OC(C)(C)C)CC1` (single isomer, unassigned) [Example 2-36, (R or S)-tert-butyl 4-(3-(4-(1-(tert-butylamino)-2,2,2-trifluoroethyl)phenyl-amino)-4-oxo-4,5-dihydropyrazolo[4,3-c]pyridin-1-yl)-4-ethylpiperidine-1-carboxylate], the values for the IC50 at JAK2 (setting [1]) and on JAK1 were 13 nM and 8.43 nM, respectively.

As for `CCC1(n2nc(Nc3ccc(C(=O)N4CCCOC(C)C4)c(C)c3)c3c(=O)[nH]ccc32)CCN(C(=O)OC(C)(C)C)CC1` (single isomer, unassigned) [Example 3-23, tert-butyl 4-ethyl-4-[3-({3R or 3S-methyl-4-[(2-methyl-1,4-oxazepan-4-yl)carbonyl]phenyl}amino)-4-oxo-4,5-dihydro-1H-pyrazolo [4,3-c]pyridin-1-yl] piperidine-1-carboxylate], the IC50 on JAK1 stood at 1.14 nM.

Turning to `CCC1(n2nc(Nc3ccc(C(=O)N4CCOC(C)C4C)c(C)c3)c3c(=O)[nH]ccc32)CCN(C(=O)OC(C)(C)C)CC1` (single isomer, unassigned) [Example 3-14, tert-butyl 4-[3-({4-[(2,3-dimethylmorpholin-4-yl)carbonyl]-3-methylphenyl}amino)-4-oxo-4,5-dihydro-1H-pyrazolo[4,3-c]pyridin-1-yl]-4-ethylpiperidine-1-carboxylate], the IC50 turned out to be 1.76 nM on JAK2 (setting [1]) and 2.88 nM at JAK1.

On to `CCC1(n2nc(Nc3ccc([C@@]4(C(F)(F)F)CCCCCN4)cc3)c3c(=O)[nH]ccc32)CCN(C(=O)OC(C)(C)C)CC1` (single isomer, unassigned) [Example 2-10, (R or S)-tert-butyl 4-ethyl-4-(4-oxo-3-((4-(2-(trifluoromethyl)azepan-2-yl)phenyl)amino)-4,5-dihydro-1H-pyrazolo[4,3-c]pyridin-1-yl) piperidine-1-carboxylate], for which the values for the IC50 at JAK2 (setting [1]) and at JAK1 were 16.9 nM and 13.9 nM, respectively.

For `CCC1(n2nc(Nc3ccc(C(=O)N4CCOC(C)C4C)c(C)c3)c3c(=O)[nH]ccc32)CCN(C(=O)OC(C)(C)C)CC1` (single isomer, unassigned) [Example 3-16, tert-butyl 4-[3-({4-[(2,3-dimethylmorpholin-4-yl)carbonyl]-3-methylphenyl}amino)-4-oxo-4,5-dihydro-1H-pyrazolo[4,3-c]pyridin-1-yl]-4-ethylpiperidine-1-carboxylate], the IC50 on JAK2 (setting [1]) was found to be 1.07 nM; on JAK1 it was 1.87 nM.
